IC50 data for two molecules are collected here from patent US8927545B2, “Inhibiting Eph B-3 kinase” (Duke University, priority 2009, dated 2015).

Chains of the proteins cited; added tags and fusions are not shown. Residues count along the entry.
UniProt P54753, 633-896 limits assumed: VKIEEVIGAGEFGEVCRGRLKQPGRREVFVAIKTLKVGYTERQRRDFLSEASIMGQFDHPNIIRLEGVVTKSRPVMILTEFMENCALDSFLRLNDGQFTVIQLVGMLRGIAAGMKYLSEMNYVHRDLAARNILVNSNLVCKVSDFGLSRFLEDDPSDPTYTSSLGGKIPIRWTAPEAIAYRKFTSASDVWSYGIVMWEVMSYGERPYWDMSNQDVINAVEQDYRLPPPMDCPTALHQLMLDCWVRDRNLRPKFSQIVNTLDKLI

The assay addresses recombinant human EphB3 kinase (Homo sapiens, UniProt P54753). As to the kind of experiment: IC50 for inhibiting EphB3 phosphorylation of the BTK peptide (33P radiometric assay, assay of Examples 1-6). To be noted: inhibiting EphB3 phosphorylation of the BTK peptide (SEQ ID NO: 4). The class given is biochemical.

A value given as a limit tells only on which side of the number the result lay.

One may read the IC50 as the concentration that inhibits the measured activity by half. Consider `CS(=O)(=O)c1ccccc1NC(=O)c1cnn2ccccc12`, for which, for the setting “Table 1 pyrazolo[1,5-a]pyridine compounds”, the IC50 is above 20 µM.

Take `O=C(Nc1ccccc1Cl)c1c[nH]c2ccccc12`: for the setting “Table 2 candidate compounds”, the IC50 was above 20 µM.
